Data from article PMC6093302.

By UniProt entry, the sequences of proteins in these tests, tags left out. Residues count along the entry.
UniProt Q9NZQ7, 19-239: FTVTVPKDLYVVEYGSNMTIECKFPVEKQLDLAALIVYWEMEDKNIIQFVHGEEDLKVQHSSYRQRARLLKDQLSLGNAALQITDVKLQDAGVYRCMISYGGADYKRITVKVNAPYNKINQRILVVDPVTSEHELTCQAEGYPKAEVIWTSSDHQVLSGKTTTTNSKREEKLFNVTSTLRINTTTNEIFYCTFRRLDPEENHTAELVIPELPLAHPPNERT
UniProt Q15116, 21-170: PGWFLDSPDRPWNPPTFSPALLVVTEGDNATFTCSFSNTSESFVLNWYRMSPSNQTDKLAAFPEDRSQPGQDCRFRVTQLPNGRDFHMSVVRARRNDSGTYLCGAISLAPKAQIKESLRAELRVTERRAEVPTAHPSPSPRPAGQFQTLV

Molecular target: Strep-SNAP-PD-L1^EX-His10 (human) (UniProt Q9NZQ7)
Experiment: FRET or BRET

Question: Which Kd does the source give for “Strep-SNAP-PD-1^EX-His10 (from UniProt Q15116 21-170) (domain or fragment)” here?
Answer: 18 nM
